Granule exo inh = LAMP-1 surface exposure blockers, TALL-104 cells – cell-based, flow cytometry, MLPCN library, primary screen | inhibition, % at 10 µM | AID 651702, 2012 | TALL-104 LAMP-1 surface exposure; cells stimulated with thapsigargin and PMA | 360,000 tested, 0.66% active;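 active means inhibition above about 55%, limit read from the data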
p-CIP stab down = p/CIP-EGFP fusion destabilizers, primary screen, fluorescence, F442A cells; Q05BA5; decrease of EGFP signal, % at 10 µM; 16 h; 290,000 tested, 0.01% active;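 active means EGFP signal decrease of at least 30% at 10 µM or well 3 SD below plate mean, unless failing retest; inactive means the rest, including hits failing retest or dose response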
PKA-R2B activ = activators of PKA-R2B holoenzyme, primary screen, biochemical, fluorescence polarization, Cy5-IP20, human; cAMP-dependent protein kinase catalytic subunit beta (Homo sapiens) + cAMP-dependent …; AID 504700, 2011; PKA-R2B holoenzyme dissociation; R2B truncated from residue 108, S112A mutant; 0% DMSO only, 100% 113 µM cGMP; activation, % at 11.4 µM; 340,000 tested, 0.079% active;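 active means activation above a cutoff set at the mean over all compounds plus 3 SD, cut at about 18% in these data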;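 further: higher means more holoenzyme dissociation and a rise in polarization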
ABCB6 inh 2 = ABCB6 transporter inhibitors, primary screen, K562-ABCB6 cells, flow cytometry, MLPCN library. fluorescence ratio to DMSO, % at 10 µM. ATP-binding cassette sub-family B member 6 (Homo sapiens), Q9NP58. K562-ABCB6 porphyrin accumulation, 1 h; hits give low values. 360,000 tested, 0.19% active;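 active means fluorescence ratio to DMSO below 75%, the collection mean minus 3 SD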;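 further: signal is porphyrin accumulated inside mitochondria; 100% equals median channel fluorescence of DMSO control wells; lower ratio means ABCB6 inhibition with less porphyrin fluorescence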
UUG fidelity = modulators of yeast start codon fidelity, primary screen, whole organism, S. cerevisiae, single point, plate reader | AID 602363, 2012 | actives 0.13% (n = 350,000) | activity score, % at 18.7 µM | S. cerevisiae UUG-firefly luciferase reporter, luminescence/redox ratio;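 active means replicate mean at a twofold rise or more, about +100% in these data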;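 further: firefly luciferase made from a UUG start codon reports start codon fidelity; reporter light over untreated wells divided by growth signal over untreated wells; some hits fall short of that in this replicate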
PKA-R1A act = activators of PKA-R1A holoenzyme, primary screen, biochemical, fluorescence polarization, Cy5-IP20, bovine R1A, mouse PKAc | activation, % at 11.4 µM | PKA-R1A dissociation; scaled: DMSO 0%, 113 µM cGMP 100% | 340,000 tested, 0.083% active | cAMP-dependent protein kinase type I-alpha regulatory subunit (Bos taurus) + …;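 active means percent activation above the mean of all tested compounds plus 3 SD, cut at about 19% in these data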;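 further: higher means more PKAc released from R1A so a rise in polarization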
Exocytosis CP01 = inhibitors of lytic granule exocytosis, confirmation, TALL-104 cells, flow cytometry, Cherry Pick01; shares compounds with Granule exo inh; inhibition, % at 10 µM; 1,500 tested, 11% active; AID 651954, 2012; LAMP-1 externalization; stimulated with PMA plus thapsigargin; in the data active means inhibition above about 60%;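 further: 0% = stimulated vehicle wells and 100% = unstimulated wells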
The depositor's hits bear a star; · = no result given. Rows were chosen to be rich in hits. Some 0.94% of all compounds tested hit in one or more screens of this group.

SMILES	Granule exo inh	p-CIP stab down	PKA-R2B activ	ABCB6 inh 2	UUG fidelity	PKA-R1A act	Exocytosis CP01
C[C@H](CO)N1C[C@H](C)[C@H](CN(C)C(=O)Nc2ccc3c(c2)OCO3)Oc2ccc(NC(=O)Cc3ccccc3)cc2C1=O	·	·	·	·	-3.8	·	·
COc1cc(CNCCCN2CCOCC2)cc(Br)c1OCc1ccc(Cl)cc1	57.8*	-10.1	-1.7	97.0	-25.3	14.0	26.5
CCNC(=O)C[C@H]1CC[C@@H]2[C@@H](COc3ccc(NC(=O)Nc4cccc(OC)c4)cc3C(=O)N2C)O1	·	·	·	·	2.6	·	·
COCCn1c(SC(C)C(=O)NCC2CCCO2)nc2sc3c(c2c1=O)CCC3 (stereo not drawn)	59.4*	·	7.1	99.0	1.9	-4.9	-12.8
COc1ccc(OC)c(Nc2nc(C3CC3)nc3c2nnn3Cc2ccccc2)c1	60.1*	4.1	-12.1	103.0	·	-13.8	-5.2
COc1ccc(Cl)cc1Nc1nc(C)nc2c1nnn2Cc1ccccc1	-4.1	0.6	4.2	96.0	-6.3	7.3	·
Cc1ccc(S(=O)(=O)N(C)C[C@@H]2OCCCC[C@H](C)Oc3ccc(NC(=O)Nc4ccccc4)cc3C(=O)N([C@H](C)CO)C[C@H]2C)cc1	·	·	·	·	-4.8	·	·
C#CCNC(=O)C1=C[C@@H](c2coc3ccccc3c2=O)C[C@@H](OCc2ccc(CO)cc2)O1	87.7*	3.9	-3.6	100.0	-10.1	-10.2	-4.6
C#CCNC(=O)C1=C[C@H](c2coc3ccccc3c2=O)C[C@H](OCc2ccc(CO)cc2)O1	-3.5	-0.7	-5.1	98.0	-1.5	-2.6	·
NC(=O)CC[C@H](NC(=O)c1ccc(F)cc1)C(=O)OCC(=O)Nc1c(F)c(F)c(F)c(F)c1F	-6.1	-9.2	2.7	103.0	-13.4	0.1	·

A draw from above in order of molar mass, smallest number first:
SMILES	Granule exo inh	p-CIP stab down	PKA-R2B activ	ABCB6 inh 2	UUG fidelity	PKA-R1A act	Exocytosis CP01
COc1ccc(Cl)cc1Nc1nc(C)nc2c1nnn2Cc1ccccc1	-4.1	0.6	4.2	96.0	-6.3	7.3	·
C#CCNC(=O)C1=C[C@@H](c2coc3ccccc3c2=O)C[C@@H](OCc2ccc(CO)cc2)O1	87.7*	3.9	-3.6	100.0	-10.1	-10.2	-4.6
COc1cc(CNCCCN2CCOCC2)cc(Br)c1OCc1ccc(Cl)cc1	57.8*	-10.1	-1.7	97.0	-25.3	14.0	26.5
NC(=O)CC[C@H](NC(=O)c1ccc(F)cc1)C(=O)OCC(=O)Nc1c(F)c(F)c(F)c(F)c1F	-6.1	-9.2	2.7	103.0	-13.4	0.1	·
Cc1ccc(S(=O)(=O)N(C)C[C@@H]2OCCCC[C@H](C)Oc3ccc(NC(=O)Nc4ccccc4)cc3C(=O)N([C@H](C)CO)C[C@H]2C)cc1	·	·	·	·	-4.8	·	·

(listing goes on)
SMILES	Granule exo inh	p-CIP stab down	PKA-R2B activ	ABCB6 inh 2	UUG fidelity	PKA-R1A act	Exocytosis CP01
NC(=O)CC[C@H](NC(=O)c1ccc(F)cc1)C(=O)OCC(=O)NCc1ccc(F)cc1	56.6*	2.9	1.5	99.0	·	-4.1	-14.3
CCOC(=O)C1(CCOc2ccccc2)CCN(Cc2cccc(OC)c2OC)CC1	75.2*	-4.4	-16.6	99.0	-14.2	-2.2	-10.4
CCOC(=O)C1(CCOc2ccccc2)CCN(Cc2ccccc2O)CC1	56.4*	·	9.4	97.0	7.1	10.6	-13.2
CCOC(=O)C1(CCOc2ccccc2)CCN(CCCn2cccn2)CC1	59.1*	-8.0	-8.8	95.0	·	10.1	-3.8
CCOC(=O)C1(CCOc2ccccc2)CCN(Cc2cccc(F)c2)CC1	63.6*	-16.3	1.1	93.0	-4.4	-2.0	-12.5
C[C@H]1CCCCO[C@H](CN(C)Cc2ccccc2)[C@@H](C)CN([C@@H](C)CO)C(=O)c2cc(N(C)C)ccc2O1	·	·	·	·	17.0	·	·
Cc1ccc(S(=O)(=O)N(C)C[C@@H]2OCCCC[C@@H](C)Oc3ccc(NS(=O)(=O)c4cn(C)cn4)cc3C(=O)N([C@@H](C)CO)C[C@H]2C)cc1	·	·	·	·	-7.9	·	·
CCOC(=O)C1(CCOc2ccccc2)CCN(Cc2cccc(OCCO)c2)CC1	37.2	-5.2	0.9	96.0	-3.3	-2.6	·
CCOC(=O)C1(CCc2ccccc2)CCN(Cc2cc(OC)c(OC)cc2OC)CC1	63.6*	-0.1	-4.5	97.0	0.3	1.7	-2.1
CCOC(=O)C1(CCOc2ccccc2)CCN(Cc2ccc(OC)cc2)CC1	80.4*	·	-11.0	97.0	10.7	-4.8	-3.1
CCOC(=O)C1(CCOc2ccccc2)CCN(Cc2ccc(OCC)c(CO)c2)CC1	81.2*	·	4.0	94.0	5.5	-13.4	-12.1
NC1=NC[C@H](Cc2ccc(O)cc2)N1CC1CCCCC1	65.4*	-10.6	4.5	103.0	-17.1	-2.0	-11.3
NC1=NC[C@H](Cc2ccccc2)N1CC1CCCCC1	6.4	·	-18.7	99.0	-24.7	-0.9	·
CCOC(=O)c1c(-c2ccc(C)o2)csc1NC(=O)COC(=O)c1cccs1	97.1*	4.9	-9.3	89.0	-15.0	-15.7	-3.9
COc1ccc(Cl)cc1-c1cc(C(=O)NCc2ccc(C(F)(F)F)cc2)[nH]n1	86.4*	·	·	99.0	-25.6	·	31.7
COc1ccc(OC)c(NC(=O)c2cc(-c3cc(Cl)ccc3O)n[nH]2)c1	89.6*	-4.3	1.7	87.0	-13.9	0.3	57.6
Cn1c(SCc2cccc(C#N)c2)nc2ccccc2c1=O	70.7*	6.9	5.9	89.0	-20.0	-4.4	-4.0
Cn1c(SCc2cccc([N+](=O)[O-])c2)nc2ccccc2c1=O	0.7	·	-7.8	94.0	-19.2	-1.1	·
COc1ccc(C2CC(=O)Oc3c(C(CCN4CCCC(C)C4)c4ccc(N(C)C)cc4)c(OC)cc(OC)c32)cc1 (stereo not drawn)	72.4*	-0.7	-0.4	100.0	-0.8	4.9	-2.4
C[C@@H](NC(=O)C[C@@H]1C=C[C@@H](NC(=O)C2CCC2)[C@@H](CO)O1)c1ccccc1	·	·	·	·	-22.3	·	·
O=C(COC(=O)CC1CC2CCC1C2)NCc1ccc(Cl)cc1 (stereo not drawn)	63.2*	·	2.3	101.0	-3.5	4.3	-4.9
O=C(COC(=O)CC1CC2CCC1C2)NCc1ccccc1 (stereo not drawn)	3.0	·	-10.8	100.0	-6.7	5.7	·
CC[C@@H]1C(=O)[C@H](Cc2ccccc2)[C@H]2CCCC(=O)N3CC[C@@H]1[C@@H]23	63.4*	·	-0.3	99.0	4.2	-16.3	-14.2
O=C1CCC[C@@H]2[C@H](Cc3ccccc3)[C@@H](O)C[C@@H]3CCN1[C@@H]32	0.5	·	2.4	96.0	-1.6	2.1	·
CC(C)NC(=O)Nc1ccc2c(c1)CC(=O)N([C@H](C)CO)C[C@@H](C)[C@H](CN(C)S(=O)(=O)c1cn(C)cn1)O2	·	·	·	·	0.1	·	·
COc1cc(C(c2nnnn2C(C)(C)C)N2CCN(c3nc4ccccc4s3)CC2)ccc1O (stereo not drawn)	58.1*	-7.2	1.2	93.0	-1.6	-6.0	37.0
CO[C@H]1CN(C)C(=O)c2cc(NS(C)(=O)=O)ccc2OC[C@@H](C)N(C(=O)c2ccc3c(c2)OCO3)C[C@@H]1C	·	·	·	·	-11.8	·	·
COc1ccc(OC)c(-c2csc(NC(=O)Cc3ccc(OC)c(OC)c3)n2)c1	63.7*	7.2	1.8	99.0	-13.7	-3.3	-3.6
COc1cccc(NC(=O)Nc2nc(-c3ccc(OC)c(OC)c3)cs2)c1	77.8*	-22.8	-8.4	91.0	-9.3	4.9	86.7*

High-throughput results (PubChem)
